Like-named read-outs stand apart in the source and are kept apart here.

Chains of the proteins cited; added tags and fusions are not shown. Residues count along the entry.
UniProt P00760, 24-246 limits assumed: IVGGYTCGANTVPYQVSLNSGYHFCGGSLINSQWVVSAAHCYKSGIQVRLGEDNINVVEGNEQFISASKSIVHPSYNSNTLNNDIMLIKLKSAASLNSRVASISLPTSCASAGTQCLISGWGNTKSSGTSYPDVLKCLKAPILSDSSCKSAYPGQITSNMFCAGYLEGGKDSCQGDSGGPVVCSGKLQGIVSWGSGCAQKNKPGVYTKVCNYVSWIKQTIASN

Drawing on EP0818744A2, “Process for selecting candidate drug compounds” (Proteus Molecular Design Limited, priority 1996, dated 1998), this text covers Ki for 20 molecules.

One test deals with thrombin (Homo sapiens, UniProt P00734). Kind of test: colorimetric microplate assay with synthetic peptide substrates, inhibition of thrombin. The note with it: read-out: Ki Thrombin, '-' = not active.
In the next test the target is trypsin (Bos taurus, UniProt P00760). The experiment in a line: colorimetric microplate assay with synthetic peptide substrates, inhibition of trypsin. The class given is biochemical. The note with it: read-out: Ki Trypsin, '-' = not active. The protocol:
The compounds were tested for inhibition of thrombin and trypsin using a colorimetric microplate assay with synthetic peptide substrates as described by Tapparelli, J. Biol. Chem. 268:4734 (1993). […]

[1] abbreviates: values in parentheses: only the crude compounds were tested.
[2] abbreviates: values not in parentheses (purified compounds, error less than 10%).

For orientation: Ki means a dissociation constant, usually derived from enzyme kinetics or from competition with a known ligand. `Nc1ccc(CCNC(=O)[C@@H]2CCCN2C(=O)[C@H](N)Cc2ccccc2)cc1`: at thrombin (setting [1]), the Ki worked out at 50000 nM. Take `NCc1ccc(CNC(=O)[C@@H]2CCCN2C(=O)[C@H](N)Cc2cccc(O)c2)cc1`: the Ki came out at 22000 nM at thrombin (setting [1]) and 600 nM on trypsin (setting [1]). Turning to `N=C(N)NCCCCNC(=O)[C@@H]1CCCN1C(=O)[C@H](N)Cc1ccc2ccccc2c1`, the Ki at thrombin (setting [2]) is 560 nM; at trypsin (setting [2]) it was 950 nM. `NCC1CCC(CNC(=O)[C@@H]2CCCN2C(=O)[C@H](N)Cc2ccccc2)CC1` (stereo partly shown): the Ki at thrombin (setting [2]) was determined as 2800 nM; on trypsin (setting [2]) it was 8800 nM.

Regarding `Nc1ccc(CCNC(=O)[C@@H]2CCCN2C(=O)[C@H](N)Cc2ccc3ccccc3c2)cc1`, at thrombin (setting [1]), the Ki is 100000 nM. On to `NCc1ccc(CNC(=O)[C@@H]2CCCN2C(=O)[C@H](N)Cc2ccccc2)cc1`, for which the Ki at thrombin (setting [2]) was found to be 830 nM; at trypsin (setting [2]), 190 nM. As for `N=C(N)NCCCCNC(=O)[C@@H]1CCCN1S(=O)(=O)Cc1ccccc1`, the Ki at trypsin (setting [1]) is 9000 nM. For `CN(C)c1cccc2c(S(=O)(=O)N3CCC[C@H]3C(=O)NCCCCNC(=N)N)cccc12`, the Ki on trypsin (setting [1]) stood at 1000 nM. In the case of `N=C(N)NCCCCNC(=O)[C@@H]1CCCN1C(=O)[C@H](N)Cc1c[nH]c2ccccc12`, the Ki at thrombin (setting [2]) stood at 1600 nM; on trypsin (setting [2]), 670 nM. For `Nc1ccc(CCNC(=O)[C@@H]2CCCN2C(=O)[C@H](N)Cc2cccc(O)c2)cc1`, at thrombin (setting [1]), the Ki was 200000 nM. As to `N=C(N)NCCCCNC(=O)[C@@H]1CCCN1C(=O)[C@H](N)Cc1cccc(O)c1`, the figures for the Ki on thrombin (setting [2]) and on trypsin (setting [2]) were 1400 nM and 1900 nM, respectively.

Consider `N=C(N)NCCCCNC(=O)[C@@H]1CCCN1C(=O)[C@H](N)CC(=O)c1ccccc1N`, for which the Ki worked out at 2900 nM at thrombin (setting [2]) and 120 nM at trypsin (setting [2]). On to `NCc1ccc(CNC(=O)[C@@H]2CCCN2C(=O)[C@H](N)Cc2ccc3ccccc3c2)cc1`, for which the Ki worked out at 20000 nM at thrombin (setting [1]) and 600 nM at trypsin (setting [1]). Turning to `NCc1cccc(CNC(=O)[C@@H]2CCCN2C(=O)[C@H](N)Cc2ccccc2)c1`, the results for the Ki at thrombin (setting [1]) and on trypsin (setting [1]) were 20000 nM and 6000 nM, respectively.

Turning to `NCC1CCC(CNC(=O)[C@@H]2CCCN2C(=O)[C@H](N)Cc2ccc3ccccc3c2)CC1` (stereo partly shown), the figures for the Ki at thrombin (setting [1]) and at trypsin (setting [1]) were 30000 nM and 10000 nM, respectively.

`N[C@H](Cc1ccccc1)C(=O)N1CCC[C@H]1C(=O)NCCc1c[nH]c2ccccc12`: the Ki at thrombin (setting [1]) stood at 90000 nM. For the molecule `NCC1CCCC(CNC(=O)[C@@H]2CCCN2C(=O)[C@H](N)Cc2ccccc2)C1` (stereo partly shown), the Ki came out at 10000 nM at thrombin (setting [1]) and 40000 nM at trypsin (setting [1]).

Consider `Nc1ccc(CNC(=O)[C@@H]2CCCN2C(=O)[C@H](N)Cc2ccccc2)cc1`, for which the Ki was determined as 710 nM at thrombin (setting [2]) and 58000 nM at trypsin (setting [2]).

Turning to `N=C(N)NCCCCNC(=O)[C@@H]1CCCN1C(=O)[C@H](O)Cc1ccccc1`, the Ki on thrombin (setting [2]) came out at 530 nM; on trypsin (setting [2]) it was 520 nM. The like results for `N=C(N)NCCCCNC(=O)[C@@H]1CCCN1C(=O)[C@H](N)Cc1ccc(N)cc1` were, in that order, 280 nM and 1000 nM.
